From ChEMBL document CHEMBL1127540, “Three-dimensional pharmacophores from binding data” (J Med Chem, 1994) come the findings set out here.

The target of the assay is Human immunodeficiency virus type 1 protease (Human immunodeficiency virus 1, UniProt Q72874). Briefly: Binding affinity to HIV-1 protease.

A word on the Ki: it is a measure of affinity in units of concentration, obtained from inhibition or displacement. High values mean lower affinity, low ones higher affinity. In turn, `O=C(CCCN1CCC(O)(c2ccc(Cl)cc2)CC1)c1ccc(F)cc1` [HALOPERIDOL] showed an inhibition constant (Ki) of 100 µM.
